AlphaSeq binding of Ab-14 light chain variants to a spike HR2 peptide

Source: Li et al. 2023 (doi:10.1038/s41467-023-39022-2), MIT Lincoln Laboratory and A-Alpha Bio; data file from the FLAb repository.

The target is the same throughout: PDVDLGDISGINAS, from the HR2 region of SARS-CoV-2 spike.

The variants keep the heavy chain, the linker and the frameworks of Ab-14 (scFv order VH, the linker GGGGSGGGGSGGGGS, VL).
VH: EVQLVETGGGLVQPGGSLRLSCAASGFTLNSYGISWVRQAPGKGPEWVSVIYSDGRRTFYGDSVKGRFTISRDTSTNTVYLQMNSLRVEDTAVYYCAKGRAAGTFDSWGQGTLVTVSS
VL: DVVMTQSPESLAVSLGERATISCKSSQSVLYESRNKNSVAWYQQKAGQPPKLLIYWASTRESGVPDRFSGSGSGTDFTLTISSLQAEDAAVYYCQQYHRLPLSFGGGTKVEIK

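Designed CDR sequences, proposed from the first random library and measured here. Group labels follow the data file (En: ensemble of fine-tuned language models; GP: Gaussian process model; HC: hill climbing; Gen: genetic algorithm; Gibbs: Gibbs sampling; a sequence that several methods proposed may carry one label only). Affinity was read by AlphaSeq, a pooled yeast mating assay with surface-displayed partners. Binding brings cells together so that they mate, and sequencing counts the barcode pairs among the diploids. Each replicate has its own calibration line, from reference interactions of the BCL2 family. Each pool was mated in six replicate cultures.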

Each variant's VL is given in full. Variants here have more than six changes. The read-out is the apparent dissociation constant on a log10 scale (nM): the lower, the stronger. The mean shown is taken over the replicates in which the pair was detected. A sequence measured in both rounds can read differently, since the two assays cover different ranges.

VL	group	mean, log10 nM	detected
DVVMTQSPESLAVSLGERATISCKVSEMMAFLSSNRNSVAWYQQKAGQPPKLLIYDNSTRGSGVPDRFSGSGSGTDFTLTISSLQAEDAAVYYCQQYHRLPLSFGGGTKVEIK	En_HC	1.10	6 of 6
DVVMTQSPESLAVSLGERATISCSLMQSVLLESRNKNSVAWYQQKAGQPPKLLIYHASLREDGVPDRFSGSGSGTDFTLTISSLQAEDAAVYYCQQYHRLPLSFGGGTKVEIK	GP_HC	0.30	6 of 6
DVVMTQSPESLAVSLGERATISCKLSISYLFESQEKNSIAWYQQKAGQPPKLLIYENSTRENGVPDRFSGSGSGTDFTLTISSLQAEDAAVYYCQHYHRLPLSFGGGTKVEIK	En_HC	1.99	1 of 6
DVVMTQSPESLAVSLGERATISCTISQMFLGESRARNSVAWYQQKAGQPPKLLIYQASTRESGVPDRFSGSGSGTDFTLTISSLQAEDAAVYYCQSYDRLPLSFGGGTKVEIK	En_HC	1.14	6 of 6
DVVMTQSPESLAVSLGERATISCNITQQGDAMGDQRANVAWYQQKAGQPPKLLIYNGETLEHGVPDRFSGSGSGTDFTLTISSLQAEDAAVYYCQQYAHLPLLFGGGTKVEIK	En_Gibbs	0.74	6 of 6
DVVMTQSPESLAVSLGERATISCKLSVSYLFESLEKNSIAWYQQKAGQPPKLLIYENSTREKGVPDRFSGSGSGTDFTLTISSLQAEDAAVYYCQHYHRLPLSFGGGTKVEIK	En_HC	1.49	6 of 6
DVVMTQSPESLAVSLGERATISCKVFPSELGESRNKMSVAWYQQKAGQPPKLLIYSASTRESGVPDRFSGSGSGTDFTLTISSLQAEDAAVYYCQQYHRLPLSFGGGTKVEIK	GP_Gibbs	-0.14	6 of 6
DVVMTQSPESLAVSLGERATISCHISPSFMVESRLKNSVAWYQQKAGQPPKLLIYQTSTREQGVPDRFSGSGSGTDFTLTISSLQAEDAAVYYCQQYDRLPLSFGGGTKVEIK	En_HC	0.09	6 of 6
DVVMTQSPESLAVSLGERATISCDVTVVDNGASKIQNSIAWYQQKAGQPPKLLIYHGVEKCDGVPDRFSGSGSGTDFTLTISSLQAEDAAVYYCQQYSRLPLAFGGGTKVEIK	En_Gibbs	-0.08	6 of 6
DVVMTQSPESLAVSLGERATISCTISQLHNMGQFAINSVAWYQQKAGQPPKLLIYQASLRNEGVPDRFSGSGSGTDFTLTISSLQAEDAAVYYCQQYDRLPLTFGGGTKVEIK	En_Gen	2.46	6 of 6
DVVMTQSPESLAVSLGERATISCTIGGTLMWGVMNRSNVAWYQQKAGQPPKLLIYEVSQRLNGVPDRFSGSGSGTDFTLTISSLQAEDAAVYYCQQYDRLPLIFGGGTKVEIK	En_Gen	1.33	6 of 6
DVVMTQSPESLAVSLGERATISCSMEWEEWNGQSKKHNIAWYQQKAGQPPKLLIYADTKVLEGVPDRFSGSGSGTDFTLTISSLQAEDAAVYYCQQYFRLPFTFGGGTKVEIK	En_Gibbs	0.62	6 of 6
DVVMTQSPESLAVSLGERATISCQLSSITGHQSMIKNNVAWYQQKAGQPPKLLIYEMETRENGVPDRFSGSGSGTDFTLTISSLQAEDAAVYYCQQYDRLPLAFGGGTKVEIK	En_Gen	0.91	6 of 6
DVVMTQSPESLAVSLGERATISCTISELYNQALGTRNNVAWYQQKAGQPPKLLIYNNQTREDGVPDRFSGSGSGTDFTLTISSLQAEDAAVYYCQQYDRLPLSFGGGTKVEIK	En_Gen	2.83	4 of 6
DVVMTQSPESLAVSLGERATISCHITYGMMVHGRHAKSIAWYQQKAGQPPKLLIYQAEERAKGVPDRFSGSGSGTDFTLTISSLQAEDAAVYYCQQYDRLPLAFGGGTKVEIK	En_Gen	1.86	6 of 6

Extract of 2 entries:

VL,group,"mean, log10 nM",detected
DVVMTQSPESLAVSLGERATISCKLSISYLFESQEKNSIAWYQQKAGQPPKLLIYENSTRENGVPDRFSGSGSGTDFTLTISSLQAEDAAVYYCQHYHRLPLSFGGGTKVEIK,En_HC,1.99,1 of 6
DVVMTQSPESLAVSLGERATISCDVTVVDNGASKIQNSIAWYQQKAGQPPKLLIYHGVEKCDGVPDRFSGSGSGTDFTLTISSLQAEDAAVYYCQQYSRLPLAFGGGTKVEIK,En_Gibbs,-0.08,6 of 6

The authors' rule: three or more of the six replicates give a measured affinity, fewer mean a poor binder. Background: pairings of all light chain designs with three empty control strains gave a value in 4% of cases (median 2.64, 5th percentile 1.59). Values in that range, when seen in few replicates, are hard to tell from nonspecific mating. Of ten entries with the parent sequence, four were seen in most replicates (averages 0.34 to 2.37), three in one and three in none, so single entries are noisy.